In this test the target is 5-hydroxytryptamine receptor 6 (Homo sapiens, UniProt P50406). Description: Competitive Binding Assay: Activity test of serotonin 5-HT6 receptor antagonists of the general formulas 1, 2 in the setting of competitive binding to serotonin 5-HT6 receptors.

By UniProt entry, the sequences of proteins in these tests, tags left out.
UniProt P50406, whole entry: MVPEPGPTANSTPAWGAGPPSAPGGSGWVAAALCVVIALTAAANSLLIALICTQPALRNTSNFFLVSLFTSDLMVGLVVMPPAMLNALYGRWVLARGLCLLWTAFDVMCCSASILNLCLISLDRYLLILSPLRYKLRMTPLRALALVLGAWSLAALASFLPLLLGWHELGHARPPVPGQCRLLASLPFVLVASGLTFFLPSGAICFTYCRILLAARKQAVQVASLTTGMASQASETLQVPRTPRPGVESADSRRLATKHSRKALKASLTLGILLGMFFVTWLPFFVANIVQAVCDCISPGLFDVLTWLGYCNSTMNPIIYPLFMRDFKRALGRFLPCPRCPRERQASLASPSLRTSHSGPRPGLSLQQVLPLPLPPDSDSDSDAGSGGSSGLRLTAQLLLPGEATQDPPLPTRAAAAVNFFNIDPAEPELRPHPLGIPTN

From ChEMBL document CHEMBL3638956, “Tetrahydro-pyrazolo[1,5-a]pyrido-pyrimidines as antagonists of serotonin 5-HT6 receptors, methods for the production and use thereof” (2013) come the findings set out here.

For orientation: IC50 means the midpoint of a concentration-inhibition curve. A higher IC50 goes with a need for much substance. In general, Ki refers to a dissociation constant, usually derived from enzyme kinetics or from competition with a known ligand.

With `CSc1nn2c3c(c(C)nc2c1S(=O)(=O)c1cccc(Cl)c1)CNCC3`, the IC50 came out at 23.9 nM and the Ki amounted to 11.1 nM.
